From article PMC10770148, “Transport and inhibition mechanism for VMAT2-mediated synaptic vesicle loading of monoamines” (Cell Research, 2024)

Sequences of proteins named here, by UniProt entry; tags and fusion partners are left off.
UniProt Q05940, whole entry N305A: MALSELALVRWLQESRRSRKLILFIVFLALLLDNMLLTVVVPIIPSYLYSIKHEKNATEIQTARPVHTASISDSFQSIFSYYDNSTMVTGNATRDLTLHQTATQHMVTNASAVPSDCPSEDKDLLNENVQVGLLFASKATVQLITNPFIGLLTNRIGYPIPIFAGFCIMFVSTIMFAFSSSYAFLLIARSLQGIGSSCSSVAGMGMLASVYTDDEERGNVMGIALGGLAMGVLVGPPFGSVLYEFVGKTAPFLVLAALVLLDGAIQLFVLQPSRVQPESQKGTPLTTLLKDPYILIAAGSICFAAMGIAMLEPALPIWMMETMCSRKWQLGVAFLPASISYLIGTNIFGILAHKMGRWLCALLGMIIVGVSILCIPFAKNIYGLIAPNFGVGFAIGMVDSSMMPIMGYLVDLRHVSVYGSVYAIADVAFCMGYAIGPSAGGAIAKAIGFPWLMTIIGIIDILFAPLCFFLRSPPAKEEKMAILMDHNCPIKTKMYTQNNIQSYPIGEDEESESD

Molecular target: T1, VMAT2 N305A (Homo sapiens, UniProt Q05940, N305A)
T1 construct: transfected with the full-length WT hVMAT2-eGFP or the mutant plasmids; expressed in transfected cells; host or cells: HEK 293T
Experiment: Inhibition of FFN246 uptake, VMAT2 N305A mutant
Assay type: cell-based
Details: HEK 293T cells, FFN246 1 μM (Fig. S11)

COC(=O)[C@H]1[C@H]2C[C@@H]3c4[nH]c5cc(OC)ccc5c4CCN3C[C@H]2C[C@@H](OC(=O)c2cc(OC)c(OC)c(OC)c2)[C@@H]1OC [RES, reserpine]
RES inhibition of FFN246 uptake, N305A substitution: minor impact on RES inhibition
